Experimental data published in PubChem BioAssay AID449763 (Sanford-Burnham Center for Chemical Genomics, 2010).
This is a selection; strong and weak results do not stand in their true shares. Calls of active or inactive are those of the source.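 The calls were made as follows: active = at 10 µM dose, activation of 40% or more, normalized to positive control; inactive = the rest.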

Experiment: activators of apoptotic CHOP UPR arm, primary screen, cell-based, CHO-CHOP luciferase reporter, luminescence, uHTS (AID 449763);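 also: 100% = tunicamycin at 10 µg/mL and 0% = DMSO alone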
Details: at 10 µM, active compounds read high, percent of tunicamycin response over DMSO baseline
Outline: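 Evaluation: % reporter activation, DMSO baseline versus tunicamycin full activation; System: CHO-CHOP luciferase reporter cell line; Input: 500 cells/well; Incubation: 6 h compound treatment, 37 °C; Measured by: Steady-Glo luciferase luminescence; Dosing: one dose, 10 µM in 0.5% DMSO; Buffer or medium: F12 medium, 10% FBS; Benchmarks: positive tunicamycin 10 µg/mL, negative DMSO alone.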

Row | Compound | activation
1 | O=C(NCC1(N2CCCCC2)CCCCC1)c1ccc(OC(F)F)cc1 | inactive: 0.679%
2 | CCN1CCC(Nc2ccc(Cl)cc2)CC1 | inactive: -0.467%
3 | N#CC1(Nc2ccccc2)CCN(CCc2ccccc2)CC1 | inactive: -1.73%
4 | CSc1ccc(C(=O)NCC2(N3CCOCC3)CCCCC2)cc1 | inactive: 2.51%
5 | O=C(NCC1(N2CCCCC2)CCCCC1)c1cccc([N+](=O)[O-])c1 | inactive: 1.53%
6 | O=C(NCC1(N2CCCCC2)CCCCC1)c1cccc(C(F)(F)F)c1 | inactive: -0.593%
7 | COc1cc(C(=O)NCC2(N3CCCCC3)CCCCC2)ccc1OC(F)F | inactive: 2.99%
8 | O=C(NCC1(N2CCOCC2)CCCCC1)c1cc(=O)[nH]c2ccccc12 | inactive: -0.74%
9 | CN1CCN(CCOC(=O)C(O)(c2ccccc2)c2ccccc2)CC1 | inactive: -1.1%
10 | CC(C)c1ccc(C(=O)NCC2(N3CCOCC3)CCCCC2)cc1 | inactive: 2.74%
11 | COc1ccc(NC2CCN(C(=O)OC(C)(C)C)CC2)cc1 | inactive: 0.671%
12 | CC(C)c1ccc(NC2CCN(C(=O)OC(C)(C)C)CC2)cc1 | inactive: 6.06%
13 | COc1ccc(CN(CCCl)CCCl)cc1Cl | inactive: 1.8%
14 | CN(C)c1cccc(C(=O)NCC2(N3CCCCC3)CCCCC2)c1 | inactive: -1.08%
15 | COc1cc(OC)c(C(=O)NCC2(N(C)C)CCCCC2)cc1OC | inactive: 1.07%
16 | O=C(NCC1(N2CCOCC2)CCCCC1)c1cc(F)c(F)cc1Cl | inactive: 0.0927%
17 | O=C(NCC1(N2CCCCC2)CCCCC1)c1cncc(Br)c1 | inactive: 1.82%
18 | CN1CCC(Nc2cccc(F)c2)CC1 | inactive: -0.868%
19 | COc1ccc(C(=O)NCC2(N3CCCCC3)CCCCC2)cc1 | inactive: 1.75%
20 | CC(C)(C)OC(=O)N1CCC(N(C(=O)c2ccccc2)c2ccc(F)cc2)CC1 | inactive: -1.41%
21 | COc1ccc(C(=O)NCC2(N3CCCCC3)CCCCC2)c(OC)c1OC | inactive: 1.96%
22 | O=C(NCC1(N2CCCCC2)CCCCC1)c1ccc(=O)[nH]c1 | inactive: -2.05%
23 | O=C(NCC1(N2CCCCC2)CCCCC1)c1cccs1 | inactive: 1.86%

Row | Compound | activation
24 | CSc1ccccc1C(=O)NCC1(N2CCCCC2)CCCCC1 | inactive: 0.307%
25 | O=C(NCC1(N2CCCCC2)CCCCC1)c1ccc(Cl)nc1 | inactive: 0.729%
26 | Cc1cc(C)cc(N(C(=O)c2ccccc2)C2CCN(C(=O)OC(C)(C)C)CC2)c1 | inactive: -0.185%
27 | O=C(NCC1(N2CCOCC2)CCCCC1)c1cc2ccccc2o1 | inactive: 0.737%
28 | O=C(OC1CN2CCC1CC2)C1c2ccccc2Oc2ccccc21 (configuration not stated) | inactive: 2.57%
29 | N#CC1(Nc2ccccc2)CCN(Cc2ccccc2)CC1 | inactive: 1.75%
30 | O=C(NCC1(N2CCCCC2)CCCCC1)c1ccc(Cl)s1 | inactive: -0.916%
31 | COc1ccc(Cl)cc1C(=O)NCC1(N2CCOCC2)CCCCC1 | inactive: 0.491%
32 | CCOC(=O)N1CCC(Nc2ccc(OC)cc2)CC1 | inactive: 2.86%
33 | CCOc1ccc(C)cc1CN(CCCl)CCCl | inactive: -0.894%
34 | O=C(NCC1(N2CCCCC2)CCCCC1)c1ccc(F)cc1 | inactive: -1.69%
35 | CCCCOc1ccc(C(=O)NCC2(N3CCOCC3)CCCCC2)cc1 | inactive: -0.378%
36 | COc1ccc(NC2CCN(CCc3ccccc3)CC2)c(OC)c1 | inactive: -0.416%
37 | CCOC(=O)N1CCC(Nc2ccc(F)cc2)CC1 | inactive: -0.485%
38 | CCOC(=O)N1CCC(Nc2cccc(C)c2)CC1 | inactive: 0.681%
39 | Cc1ccc(OCC(C)C)c(CN(CCCl)CCCl)c1 | inactive: 5.7%
40 | COc1cc(OC)cc(C(=O)NCC2(N3CCCCC3)CCCCC2)c1 | inactive: -2.32%
41 | Cc1ccc(C(=O)NCC2(N3CCCCC3)CCCCC2)o1 | inactive: 0.53%
42 | Fc1ccccc1NC1CCN(Cc2ccccc2)CC1 | inactive: -1.9%
43 | CCN1CCC(Nc2cccc(F)c2)CC1 | inactive: -1.1%
44 | O=C(NCC1(N2CCCCC2)CCCCC1)c1ccco1 | inactive: -1.81%
45 | CN(C)c1ccc(C(=O)NCC2(N3CCCCC3)CCCCC2)cc1 | inactive: 5.07%
46 | CCOc1ncccc1C(=O)NCC1(N2CCOCC2)CCCCC1 | inactive: -1.79%

Row | Compound | activation
47 | CN1CCC(Nc2ccc(F)c(Cl)c2)CC1 | inactive: 1.51%
48 | CC(C)(C)OC(=O)N1CCC(Nc2ccccc2)CC1 | inactive: 1.14%
49 | O=C(O)C1(Nc2ccccc2)CCN(Cc2ccccc2)CC1 | inactive: -0.415%
50 | CCCOc1ccc(C(=O)NCC2(N(C)C)CCCCC2)cc1 | inactive: 1.91%
51 | COc1cc(OC)cc(C(=O)NCC2(N3CCOCC3)CCCCC2)c1 | inactive: -0.288%
52 | COc1cccc(C(=O)N(c2cc(C)cc(C)c2)C2CCN(C(=O)OC(C)(C)C)CC2)c1 | inactive: 1.34%
53 | CCC(CO)(C(=O)OC1CN2CCC1CC2)c1ccccc1 (configuration not stated) | inactive: 0.724%
54 | CN1CCC(Nc2ccc(Cl)cc2)CC1 | inactive: -1.07%
55 | CCCOc1ccc(C)cc1CN(CCCl)CCCl | inactive: 0.0502%
56 | COc1cc(C(=O)NCC2(N3CCOCC3)CCCCC2)cc(OC)c1C | inactive: 0.446%
57 | O=C(NCC1(N2CCOCC2)CCCCC1)c1cc(Br)ccc1Cl | inactive: -1.53%
58 | COc1ccc(C(=O)NCC2(N3CCOCC3)CCCCC2)cc1OC | inactive: 0.257%
59 | CCOC(=O)N1CCC(Nc2ccc(C)cc2)CC1 | inactive: 3.45%
60 | N/C(=N\O)c1c(N)no[n+]1[O-] | inactive: 1.32%
61 | O=C(OC1CN2CCC1CC2)C1c2ccccc2C=Cc2ccccc21 (configuration not stated) | inactive: -1.02%
62 | CCc1cc(C(=O)NCC2(N3CCCCC3)CCCCC2)sc1C | inactive: 0.543%
63 | N#Cc1ccc(C(=O)NCC2(N3CCCCC3)CCCCC2)cc1 | inactive: 0.664%
64 | CC(C)(C)OC(=O)N1CCC(N(C(=O)c2ccccc2)c2ccc(Cl)cc2)CC1 | inactive: -0.0334%
65 | CN(C)C1(CNC(=O)c2cccc(C#N)c2)CCCCC1 | inactive: 0.157%
66 | c1ccc(CN2CCC(Nc3ccccc3)CC2)cc1 | inactive: -0.369%
67 | CCCN1CCC(Nc2cc(OC)cc(OC)c2)CC1 | inactive: 1.44%
